Here are results for one molecule from publication PMC12574689, “Synthesis of novel SRPK1-targeting hybrid compounds incorporating antimetabolites for cancer therapy” (RSC Medicinal Chemistry, 2025).

Amino acid sequences for entries named in this document (tags omitted).
UniProt P78362, whole entry: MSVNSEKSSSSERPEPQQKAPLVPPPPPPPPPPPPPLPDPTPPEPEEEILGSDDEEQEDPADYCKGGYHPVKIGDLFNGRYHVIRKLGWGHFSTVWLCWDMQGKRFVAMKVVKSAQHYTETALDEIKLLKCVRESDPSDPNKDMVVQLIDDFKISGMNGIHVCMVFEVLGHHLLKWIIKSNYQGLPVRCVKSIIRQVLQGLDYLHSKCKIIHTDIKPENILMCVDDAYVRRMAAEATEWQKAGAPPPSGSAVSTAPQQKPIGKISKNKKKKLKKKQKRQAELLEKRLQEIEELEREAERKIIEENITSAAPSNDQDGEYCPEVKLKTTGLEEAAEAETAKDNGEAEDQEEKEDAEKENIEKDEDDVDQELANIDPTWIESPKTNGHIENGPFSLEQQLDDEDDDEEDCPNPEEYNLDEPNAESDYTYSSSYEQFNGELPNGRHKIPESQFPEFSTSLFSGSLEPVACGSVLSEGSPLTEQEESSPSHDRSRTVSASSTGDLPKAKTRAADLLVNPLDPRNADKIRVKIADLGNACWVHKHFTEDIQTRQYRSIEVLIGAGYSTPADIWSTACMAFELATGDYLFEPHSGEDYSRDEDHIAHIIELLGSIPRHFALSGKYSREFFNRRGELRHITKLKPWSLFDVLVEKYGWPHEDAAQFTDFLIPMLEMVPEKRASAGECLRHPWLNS

What is called EC50 is the concentration that produces a half-maximal response. A higher EC50 goes with weaker potency. As a reminder, the IC50 is the point on the concentration scale where inhibition reaches its midpoint.

In one data set the test system is Caco2. The data set can be described thus: MTT viability assay, Caco2. The conditions noted are these: 48 h treatment, mean of three independent experiments. In general terms: Tetrazolium dyes change colour on reduction, which living cells bring about.
For another data set, the system named is SRPK1 in HeLa cells. The experiment in a line: Immunofluorescence of SRPK1 subcellular localization.
The subject of data set [1] is primary intestinal subepithelial myofibroblasts (SEMFs). The experiment in a line: MTT viability assay, primary SEMFs. The conditions noted are these: 48 h treatment, mean of three independent experiments.
A further data set deals with HepG2. The experiment in a line: MTT viability assay, HepG2. The note with it: 48 h treatment, mean of three independent experiments.
For another data set, the system named is HT-29. The experiment in a line: MTT viability assay, HT-29. The conditions noted are these: HT-29, MTT, 48 h treatment, mean of three independent experiments.
A further data set relates to K562. The data set can be described thus: MTT viability assay, K562. The conditions noted are these: 48 h treatment, mean of three independent experiments.
A further data set deals with GST-SRPK2 (Homo sapiens, UniProt P78362). The data set can be described thus: In vitro kinase assay, GST-SRPK2. The conditions noted are these: read-out: GST-SRPK2 (IC50); substrate GST-LBRNt(62–92), 25 μM ATP.
A further data set concerns A549. The experiment in a line: MTT viability assay, A549. The note with it: 48 h treatment, mean of three independent experiments.
For another data set, the system named is HeLa. The data set can be described thus: MTT viability assay, HeLa. The note with it: 48 h treatment, mean of three independent experiments.

Where only a bound is given, the exact number is not on record here.

For `CCc1cc2c(cc1-c1cc[nH]n1)C(C)(C)c1[nH]c3cc(C#N)ccc3c1C2=O`, the EC50 in the data set on Caco2 was 14.8 µM; in data set [1], 12.8 µM; in the data set with HepG2, 16.7 µM; in the data set on HT-29 it was 1400 nM; in the data set on K562 it was 13.2 µM; in the data set on A549, > 50 µM. In the data set on HeLa, this molecule displayed an EC50 of 8.6 µM. Further, the “effect on SRPK1 subcellular localization” value with SRPK1 in HeLa cells (20 μM, 24 h) is on record as “did not affect the cytoplasmic localization of the kinase”. For the same molecule, the “effect on SRPK1 nuclear accumulation in 5-FU-treated cells” value in the data set with SRPK1 in HeLa cells (co-treatment with 5-FU) is reported as “prevented the nuclear accumulation of SRPK1”. Further, the IC50 at GST-SRPK2 was 4.1 µM.
